The list shows a part of the results, in another mix than the full data. Calls of active or inactive are those of the source.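 How the source made its calls: active means mean inhibition of at least 50% after viability correction, with every replicate also passing that limit; inconclusive means mean reaches 50% but only one of two replicates passes; inactive means the rest.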
Assay: EWS/Fli-driven NR0B1 reporter inhibitors, primary screen, A673 cells, NR0B1 luciferase, luminescence, MLPCN library (AID 651661);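 further: firefly luciferase signal divided by Alamar Blue viability fluorescence both relative to DMSO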
Conditions: viability-normalised, at 12.6 µM, active compounds read high

| SMILES | inhibition |
| --- | --- |
| CCC(=O)N(c1ccccc1)C1(COC)CCN(CCn2nnn(CC)c2=O)CC1 | inactive: -1.52% |
| CCC(=O)N(c1ccccc1)C1(COC)CCN(CCc2cccs2)CC1 | inactive: -6.37% |
